From ChEMBL document CHEMBL1157122, “The contribution of a 2-amino group on receptor tyrosine kinase inhibition and antiangiogenic activity in 4-anilinosubstituted pyrrolo[2,3-d]pyrimidines” (Bioorg Med Chem Lett, 2010)

Sequences of proteins named here, by UniProt entry; tags and fusion partners are left off.
UniProt P09619, whole entry: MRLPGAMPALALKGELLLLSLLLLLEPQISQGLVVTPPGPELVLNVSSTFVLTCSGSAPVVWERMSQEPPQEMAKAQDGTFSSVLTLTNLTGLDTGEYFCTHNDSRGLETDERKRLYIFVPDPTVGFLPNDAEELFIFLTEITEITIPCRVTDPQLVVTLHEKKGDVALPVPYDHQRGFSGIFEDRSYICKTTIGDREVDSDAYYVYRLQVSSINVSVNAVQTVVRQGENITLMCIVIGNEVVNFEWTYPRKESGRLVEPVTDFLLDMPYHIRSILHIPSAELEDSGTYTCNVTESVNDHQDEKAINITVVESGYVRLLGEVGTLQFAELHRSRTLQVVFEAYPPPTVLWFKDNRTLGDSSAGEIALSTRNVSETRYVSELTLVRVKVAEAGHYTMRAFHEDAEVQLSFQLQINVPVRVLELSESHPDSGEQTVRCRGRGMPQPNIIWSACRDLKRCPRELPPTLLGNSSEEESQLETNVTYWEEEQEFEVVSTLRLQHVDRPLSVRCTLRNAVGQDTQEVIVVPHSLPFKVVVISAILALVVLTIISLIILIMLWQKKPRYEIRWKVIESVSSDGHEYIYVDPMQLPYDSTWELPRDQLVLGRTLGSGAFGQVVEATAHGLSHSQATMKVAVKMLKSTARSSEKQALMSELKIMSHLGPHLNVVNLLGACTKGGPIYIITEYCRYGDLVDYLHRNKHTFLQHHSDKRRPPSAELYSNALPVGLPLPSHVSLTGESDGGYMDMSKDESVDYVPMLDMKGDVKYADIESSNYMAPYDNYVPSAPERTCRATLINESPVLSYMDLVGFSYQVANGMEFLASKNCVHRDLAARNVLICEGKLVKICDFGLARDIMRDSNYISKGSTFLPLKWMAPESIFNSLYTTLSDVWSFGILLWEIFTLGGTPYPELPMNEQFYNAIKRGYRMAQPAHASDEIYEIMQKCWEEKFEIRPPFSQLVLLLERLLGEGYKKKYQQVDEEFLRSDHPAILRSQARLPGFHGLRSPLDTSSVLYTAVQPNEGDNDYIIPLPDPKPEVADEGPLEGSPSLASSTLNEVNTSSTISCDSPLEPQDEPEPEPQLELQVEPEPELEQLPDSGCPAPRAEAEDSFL

Target: Platelet-derived growth factor receptor beta (Homo sapiens, UniProt P09619)
Assay: Inhibition of PDGFRbeta

Cc1cc2ncc(-c3ccccc3)nc2cc1C [AG1295]
IC50: 6.5 µM
